Screens: PubChem BioAssay, Broad Institute
RAD54 inh: inhibitors of human RAD54 branch migration; Q92698; RAD54 Holliday junction branch migration, FAM/BHQ fluorescence; inhibition, % at 10.4 µM; hit rate 0.14% among 360,000;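 active means mean normalized replicate activity at least 40 and at least half of replicates scoring 40 or more; inconclusive means only one of the two criteria met; inactive means mean below 40 and under half of replicates reaching 40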;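 further: inhibitors cause a drop in the FAM fluorescence signal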
E-selectin induc: E-selectin induction on HUVECs | hit rate 0.37% among 260,000 | P16581 | HUVEC E-selectin immunofluorescence imaging; normalized: neutral wells 0, TNF-alpha wells 100 | AID 686992 | activation, % at 7.58 µM;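 active means mean E-selectin-positive cell signal at least 10% of the positive control, reached in at least 60% of replicates, without over 20% cell loss; inconclusive means no rule given, readout overlaps actives, possibly toxicity-flagged; inactive means the rest, including those meeting only one limit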
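System: HUVEC / Compound: single concentration / Signal: immunofluorescence imaging / Read-out: percent E-selectin-positive cells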
UUG fidelity: modulators of yeast start codon fidelity, primary screen, whole organism, S. cerevisiae, single point, plate reader; activity score, % at 18.7 µM; actives 0.13% (n = 350,000); S. cerevisiae UUG-firefly luciferase reporter, luminescence/redox ratio;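 active = replicate mean at a twofold rise or more, about +100% in these data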;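 also: firefly luciferase made from a UUG start codon reports start codon fidelity; reporter light over untreated wells divided by growth signal over untreated wells; some hits fall short of that in this replicate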
Xi reactivation: X-chromosome reactivation activator. XiGFP mouse fibroblasts, % GFP-positive cells imaging, 3 d; cells co-treated with 5-aza-dC sensitizer; scaled so ellipticine positive control = 100%. activation, % at 7.58 µM. hit rate 0.055% among 360,000;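 active means mean normalized replicate activation at least 10% and every replicate at or above 10%; inconclusive means only one of the two criteria met; inactive means mean below 10% and not all replicates reach 10%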
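Material: XiGFP fibroblasts, SV40-immortalized; Buffer or medium: DMEM containing 5-aza-dC; Compound dosing: single point; Times: 3 days compound exposure.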
RAD52 anneal inh: blocks human RAD52 DNA annealing | hit rate 0.46% among 360,000 | P43351 | recombinant RAD52 DNA annealing, FRET fluorescence | inhibition, % at 18.7 µM;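 active means every replicate showing at least 50% inhibition; inconclusive means mean inhibition at least 50% but not in every replicate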
Large screens that a line does not name were inactive. An excerpt weighted towards active compounds, which were near 0.73% of everything screened.

CNC[C@@H]1Oc2c(NC(=O)C3CC3)cccc2C(=O)N([C@H](C)CO)C[C@H]1C	none
COc1ccc(C(=O)N2c3ccccc3C=CC2C#N)cc1 (stereo unspecified)	E-selectin induc 91.1 (no result: RAD54 inh, UUG fidelity)
CC(C)NC(=O)Nc1ccc2c(c1)C(=O)N([C@@H](C)CO)C[C@H](C)[C@@H](CN(C)Cc1ccccc1)O2	none
C[C@H](CO)N1C[C@H](C)[C@@H](CN(C)C(=O)NC2CCCC2)Oc2ncc(C3=CCCCC3)cc2C1=O	none
CC(NCC(O)COCCC12CC3CC(CC(C3)C1)C2)c1ccccc1 (stereo unspecified)	RAD52 anneal inh 54.8
CN(C)S(=O)(=O)c1ccc(Cl)c(C(=O)Nc2nc3ccccc3[nH]2)c1	E-selectin induc 30.2
CS(=O)(=O)c1ccccc1C(=O)Nc1nc2ccccc2[nH]1	none (no result: RAD54 inh)
Cc1ccc(C(=O)Nc2cc(C)nn2CCC#N)cc1	E-selectin induc 32.5
Cc1cc(NC(=O)c2ccc(Cl)cc2)n(CCC#N)n1	none (no result: E-selectin induc)
CN(C)CC#Cc1ccc([C@@H]2[C@@H](CO)N3CCCCN(C(=O)Nc4ccccc4F)C[C@@H]23)cc1	RAD52 anneal inh 53.6
CN(C)CC#Cc1ccc([C@@H]2[C@@H](CO)N3CCCCN(C(=O)CN(C)C)C[C@@H]23)cc1	RAD52 anneal inh 71.4
C[C@@H]1CN([C@@H](C)CO)C(=O)c2cc(NC(=O)Cn3cnnn3)ccc2O[C@@H]1CN(C)Cc1ccc(Oc2ccccc2)cc1	E-selectin induc 52.1
C[C@@H]1CN([C@H](C)CO)C(=O)c2cc(NC(=O)Cn3cnnn3)ccc2O[C@@H]1CN(C)Cc1ccc(Oc2ccccc2)cc1	E-selectin induc 88.5
C[C@H]1CN([C@@H](C)CO)C(=O)c2cc(NC(=O)Cn3cnnn3)ccc2O[C@@H]1CN(C)Cc1ccccc1	none
C[C@@H]1CN([C@@H](C)CO)C(=O)c2cc(NC(=O)Cn3cnnn3)ccc2O[C@H]1CN(C)Cc1ccc(-c2ccccc2)cc1	none
C[C@@H]1CN([C@@H](C)CO)C(=O)c2cc(NC(=O)Cn3cnnn3)ccc2O[C@H]1CN(C)S(=O)(=O)c1ccccc1	none (no result: RAD54 inh, UUG fidelity)
C[C@@H]1CN([C@H](C)CO)C(=O)c2cc(NC(=O)Cn3cnnn3)ccc2O[C@@H]1CN(C)S(=O)(=O)c1ccccc1	E-selectin induc 60.3 (no result: RAD54 inh, UUG fidelity)
O=C(NC1=NN(c2ccccc2)CC1)Nc1ccccc1F	Xi reactivation 50.3
C[C@@H]1CN([C@@H](C)CO)C(=O)c2cc(NS(=O)(=O)c3ccc(Cl)cc3)ccc2O[C@@H](C)CCCCO[C@H]1CN(C)CC1CC1	none
CC(C)NC(=O)N[C@@H]1CC[C@@H](CCNS(=O)(=O)c2ccc(F)cc2)O[C@@H]1CO	none
Cc1cc(NC(=O)c2ccccc2F)n(C(C)(C)C)n1	E-selectin induc 33.8
O=C(Nc1c2ccccc2nc2ccccc12)C(Cl)(Cl)Cl	RAD54 inh 82.9 (no result: E-selectin induc, Xi reactivation, RAD52 anneal inh)
CCCCCCCCCCCCCCCC[n+]1ccc(/C=N/O)cc1	Xi reactivation inconclusive, RAD52 anneal inh 88.0 (no result: RAD54 inh, E-selectin induc, UUG fidelity)
COc1ccc(CN2C[C@@H](O)COC[C@@H]3O[C@@H](CC(=O)N(C)C)CC[C@H]32)cc1	none (no result: UUG fidelity)
Cc1ccc(S(=O)(=O)N(C)C[C@@H]2OCCCC[C@@H](C)Oc3ccc(N(C)C)cc3C(=O)N([C@@H](C)CO)C[C@H]2C)cc1	none (no result: RAD54 inh, UUG fidelity, RAD52 anneal inh)
N#C/C(=C/c1ccc(N2CCCCC2)o1)C(=O)Nc1ccc2ccccc2c1	Xi reactivation 109.3 (no result: RAD54 inh, E-selectin induc, UUG fidelity)
C[C@@H]1CN([C@H](C)CO)C(=O)Cc2cc(NC(=O)CCCCCC(=O)Nc3ccccc3N)ccc2O[C@@H]1CN(C)CC1CC1	none
COc1cccc(CNC(=O)c2cc3c(c(-c4cccc(-c5cccc(C#N)c5)c4)n2)[C@H](CCO)N([S@@](=O)C(C)(C)C)C3)c1	RAD52 anneal inh 59.4 (no result: UUG fidelity)
CN(C)C(=O)c1cccc(-c2ccc([C@@H]3[C@@H](CO)N4CCCCN(CCC(F)(F)F)C[C@H]34)cc2)c1	none
CN(C)C(=O)c1cccc(-c2ccc([C@@H]3[C@H]4CN(CCC(F)(F)F)CCCCN4[C@H]3CO)cc2)c1	none
CC(C)NC(=O)N(C)C[C@@H]1Oc2ccc(NS(=O)(=O)c3cccs3)cc2CC(=O)N([C@H](C)CO)C[C@@H]1C	E-selectin induc 26.4
C[C@@H]1CN([C@H](C)CO)C(=O)Cc2cc(NS(=O)(=O)c3cccs3)ccc2O[C@@H]1CN(C)C(=O)Nc1ccccc1	none
